Measured values reported in ChEMBL document CHEMBL5058577, “EUbOPEN Chemogenomics Library 2 (Multiplex)” (2022).

Columns and labels:
Assay type in all cases: toxicity, cell-based
[1] = tested on: U2OS; test: Multiplex assay against U2OS; details: human, 0 h, 10 µM, compound concentration 10 uM, replicate 1
[2] = tested on: HEK-293T; test: Multiplex assay against HEK293T; details: human
[3] = tested on: Fibroblast; test: Multiplex assay against human fibroblast
[4] = 0 h, 1 µM, compound concentration 1 uM, replicate 1
[5] = 0 h, 1 µM, compound concentration 1 uM, replicate 2
[6] = 0 h, 10 µM, compound concentration 10 uM, replicate 2
[7] = 12 h, 1 µM, compound concentration 1 uM, replicate 1
[8] = 12 h, 10 µM, compound concentration 10 uM, replicate 2
[9] = 24 h, 1 µM, compound concentration 1 uM, replicate 1
[10] = 24 h, 1 µM, compound concentration 1 uM, replicate 2
[11] = 24 h, 10 µM, compound concentration 10 uM, replicate 1
[12] = 24 h, 10 µM, compound concentration 10 uM, replicate 2
[13] = 48 h, 1 µM, compound concentration 1 uM, replicate 1
[14] = 48 h, 1 µM, compound concentration 1 uM, replicate 2
[15] = 48 h, 10 µM, compound concentration 10 uM, replicate 1
[16] = 48 h, 10 µM, compound concentration 10 uM, replicate 2

CNC[C@H](O)c1ccc(O)c(O)c1 [EPINEPHRINE]
Total Cell Count [1]: 175 | Total Cell Count [2, 4]: 314 | Total Cell Count [2, 5]: 249 | Total Cell Count ([2]; 0 h, 10 µM, compound concentration 10 uM, replicate 1): 228 | Total Cell Count [2, 6]: 218 | Total Cell Count [2, 7]: 475 | Total Cell Count ([2]; 12 h, 10 µM, compound concentration 10 uM, replicate 1): 272 | Total Cell Count [2, 8]: 244 | Total Cell Count [2, 9]: 648 | Total Cell Count [2, 10]: 482 | Total Cell Count [2, 11]: 315 | Total Cell Count [2, 12]: 293 | Total Cell Count [2, 13]: 1107 | Total Cell Count [2, 14]: 678 | Total Cell Count [2, 15]: 486 | Total Cell Count [2, 16]: 312 | Total Cell Count [3, 4]: 123 | Total Cell Count [3, 5]: 150 | Total Cell Count [3, 6]: 146 | Total Cell Count [3, 7]: 135 | Total Cell Count ([3]; 12 h, 1 µM, compound concentration 1 uM, replicate 2): 119 | Total Cell Count [3, 8]: 142 | Total Cell Count [3, 9]: 132 | Total Cell Count [3, 10]: 126 | Total Cell Count [3, 11]: 169 | Total Cell Count [3, 12]: 143 | Total Cell Count [3, 13]: 135 | Total Cell Count [3, 14]: 126 | Total Cell Count [3, 15]: 168 | Total Cell Count [3, 16]: 153
